Legend:
[1] = target: T1, Biotin--[acetyl-CoA-carboxylase] ligase (Mycobacterium tuberculosis (strain ATCC 25618 / H37Rv)) (UniProt I6YFP0); test: Binding affinity to Mycobacterium tuberculosis BPL assessed as change in gibbs free energy by isothermal titration calorimetry
T1 sequence (whole entry): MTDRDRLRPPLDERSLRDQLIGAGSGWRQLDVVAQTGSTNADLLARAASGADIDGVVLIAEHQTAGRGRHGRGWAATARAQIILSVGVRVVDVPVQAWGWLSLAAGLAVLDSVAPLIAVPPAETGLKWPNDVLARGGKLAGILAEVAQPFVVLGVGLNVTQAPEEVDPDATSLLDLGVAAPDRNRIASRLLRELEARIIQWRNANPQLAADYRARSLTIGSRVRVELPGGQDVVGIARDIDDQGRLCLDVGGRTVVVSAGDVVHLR

[2] = target: T1, Biotin--[acetyl-CoA-carboxylase] ligase (Mycobacterium tuberculosis (strain ATCC 25618 / H37Rv)); test: Binding affinity to Mycobacterium tuberculosis BPL assessed as change in enthalpy by isothermal titration calorimetry

`Nc1ncnc2c1ncn2[C@@H]1O[C@H](CNS(=O)(=O)[N-]C(=O)NCCC[C@@H]2SC[C@@H]3NC(=O)N[C@@H]32)[C@@H](O)[C@H]1O.[Na+]` was tested, and the deltaG [1] was -11.1 kcal/mol and the deltaH [2] was -11.6 kcal/mol.

— ChEMBL document CHEMBL6153072, “Metabolically Stable Adenylation Inhibitors of Biotin Protein Ligase as Antibacterial Agents” (J Med Chem, 2025)
